The values below are quoted from earlier work in US20080051332A1, “METHOD OF MODULATING HEMATOPOIETIC STEM CELLS AND TREATING HEMATOLOGIC DISEASES USING INTRANASAL PARATHYROID HORMONE” (Nastech Pharmaceutical Company Inc., priority 2005, published 2008).

The conditions of the data set: intraduodenally to rats with 1% (w/v) polycarbophil dispersion vs aqueous solution without polymer; cited from earlier work.

Turning to “9-desglycinamide, 8-arginine vasopressin [DGAVP]”, the increase of bioavailability is recorded as 3-5 fold.
